A selection: hits, their analogues and other compounds. The true share with any hit is near 1.7%.
HEK293 tox: cytotoxicity in counter-screen for GLP-1R inverse agonists; HEK293 cAMP-luciferase reporter cells, luminescence, 24 h; Potency, µM (doses to about 38.3 µM), without a hit: top-dose activity change, negative = inhibition, usual class: inhibitors; hit rate 0.13% among 410,000; AID 624418;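 also: loss of luciferase light is scored as toxicity; potency is read from the fitted curve at half-maximal effect; % is scaled to controls: 0 for no effect and ±100 for the full control effect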
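Luminescence readout: signal drop marks cytotoxicity. Plated cells grew 12 h at 37 °C, 5% CO2, received 23 nL compound for 24 h, then got luciferase reagent, read after 12 min at RT.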
Pin1 inh: human Pin1 inhibition | Pin1 FP peptide displacement, HiFluor488, 10 min | Potency, µM (series often up to 115 µM), inactives show at the highest dose activity, negative = inhibition, most hits filed as inhibitors | hit rate 0.009% among 390,000; active = well fitted inhibition curve with a large enough effect in the polarisation, with a control signal flat, not every such curve was filed as active; inconclusive = small, poorly fitted or top-dose-only effect, or effect the other way, or a change in a side signal; inactive = no such curve, though single readings can be large or run the other way; the % refers to the polarisation; also: potency is read from the fitted curve at half-maximal effect; % is scaled to controls: 0 for no effect and ±100 for the full control effect
GLP-1R inv ag: GLP-1 receptor (human) inverse agonism. P43220. HEK293 GLP-1R CRE-luciferase, luminescence, 24 h; GLP-1R form is constitutively active. Potency, µM (top dose mostly 38.3 µM), for the others: at the top dose activity change, negative = inhibition, actives largely listed as inhibitors. hit rate 1.6% among 410,000. AID 624417; also: potency is read from the fitted curve at half-maximal effect; % is scaled to controls: 0 for no effect and ±100 for the full control effect; nearly all actives have a fitted effect of over 55% in size
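qHTS in 1536-well format: reporter HEK293 cells expressing constitutive GLP-1R activity in DMEM + 10% Nu serum, 24 hr with compounds at 37 deg C, luminescence read after 12 min with detection reagent.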
miR-21 reporter: miR-21 reporter, rising signal; Potency, µM (titrated, usually from 38.3 µM), without a hit: at the highest dose reporter change, positive = more light; AID 2288; 340,000 tested, under 10 active; HeLa miR-21 FLuc reporter, luciferase, 48 h; active = well fitted rising curve with a large enough effect; inconclusive = small, poorly fitted or top-dose-only effect; inactive = no such curve, though single readings can be large or run the other way;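 note: % of control where 0% means no effect; miR-21 action dims this reporter so a rising signal means less miR-21 action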
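Using DMEM plus 10% FBS, HeLa miR-21-FLuc cells are incubated with test compounds (final up to about 40uM) for 48 hours; firefly luciferase signal is then imaged following reagent-mediated lysis.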
GLP1R ag: agonists of human GLP-1 receptor; HEK293 GLP-1R CRE-luciferase, luminescence, 4-6 h; cells express a hypersensitive GLP-1R form; P43220; hit rate 0.007% among 380,000; AID 624172; Potency, µM (doses to about 45.6 µM), for the others: top-dose activation, hits mostly activators; also: potency is read from the fitted curve at half-maximal effect; % of control where 0% means no effect
PTHR1 agonist: PTHR1 (human) receptor agonism; Q03431; HEK293 GP2 PTHR1 cells, GloSensor cAMP luminescence, 1 h; Potency, µM (doses to about 115 µM), for the others: top-dose activation, hits mostly activators; hit rate 0.075% among 410,000; also: potency is read from the fitted curve at half-maximal effect; nearly all actives have a fitted effect of over 55% in size
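HEK-293-derived GP2 cells expressing PTHR1 and a GloSensor cAMP reporter, 3,000/well, plated overnight, given luciferin plus IBMX (each 0.5 mM as added) for 1 h at 37 °C, then compound for 1 h at 37 °C. Luminescence was read after 15 min at room temperature.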
* marks the source's active call; other numbers are inactive results; i = inactive; ? = inconclusive; · = no result; [ ] = remark or other dose. Unless noted, calls follow the shape of the dose curve; as a rule, active = well fitted curve in the direction sought with a large enough effect; inconclusive = small, poorly fitted or top-dose-only effect, or another doubt; inactive = no such curve, though single readings can be large; an effect the other way counts as inactive or inconclusive.

Results follow in this order: HEK293 tox | miR-21 reporter | GLP1R ag | Pin1 inh | PTHR1 agonist | GLP-1R inv ag
COc1ccccc1C1NC(c2ccc3c(c2)OCO3)=CC(c2cc(Br)ccc2O)N1 (stereo not given)
→ · | · | · | 10.9% | · | ·
CCN(Cc1ccccc1)CC(O)COC(c1ccc(OC)cc1)c1ccc(OC)cc1 (stereo not given)
→ ? | 2.9% | 13.2% | -4.4% | i | 10µM*
COc1ccc2ncnc(NCC3CCCO3)c2c1-c1ccc2c(c1)OCO2 (stereo not given)
→ · | · | · | -21.1% | · | ·
Cc1cccc(OC(=O)CSc2nnc(-c3ccc4c(c3)OCO4)o2)c1C
→ 1.7% | -0.1% | · | 2.8% | i | -4.0%
Cc1ccc(NS(=O)(=O)c2cc3c(cc2Cl)CCC(=O)N3)cc1Cl
→ · | · | · | 1.0% | · | ·
COc1ccc2nc(C)cc(Nc3ccccc3O)c2c1
→ ? | 7.9% | -1.0% | 0.2% | i | ?
COc1ccc2nc(C)cc(NCc3cccc(C(F)(F)F)c3)c2c1
→ ? | 21.8% | 4.2% | -3.0% | -11.6% | 2.82µM*
Cc1ccc(-n2ncc(C(=O)Nc3cc(Cl)ccc3Cl)c2C2CCNCC2)cc1
→ 0.0% | 6.6% | 0.0% | -7.8% | -14.2% | 7.08µM*
CCN1CCc2c(sc(-n3cccc3)c2C(C)NC(=O)Nc2ccccc2C)C1 (stereo not given)
→ -3.2% | -10.5% | · | ? | -18.1% | -6.6%
CC(NC(=O)Nc1cc(Cl)ccc1Cl)c1c(-n2cccc2)sc2c1CCCC2 (stereo not given)
→ -10.2% | -1.1% | · | 8.4% | i | 3.55µM*
COc1ccc(-c2[nH]c3ccccc3c2SCCNC(=O)c2cc3ccccc3oc2=O)cc1
→ -15.9% | -2.2% | -1.6% | 1.8% | i | ?
COc1ccc(-c2[nH]c3ccccc3c2SCCN)cc1
→ ? | -6.6% | -1.4% | -1.5% | -81.0% | 2µM*
CCn1c(CN2CCN(Cc3ccc(C)cc3)C(CCO)C2)nc2ccccc21 (stereo not given)
→ -0.8% | 1.1% | -3.2% | -10.8% | i | 6.31µM*
O=C(N1CCCCC1)N1CCN(C(c2ccccc2)c2ccccc2)CC1
→ 0.3% | 10.9% | 0.8% | -2.3% | i | 5.01µM*
O=C(NC1CCCCC1)N1CCN(C(c2ccccc2)c2ccccc2)CC1
→ 17.8% | 3.4% | 4.1% | 3.7% | ? | 3.98µM*
O=C(N1CCOCC1)N1CCN(C(c2ccccc2)c2ccccc2)CC1
→ 1.2% | 0.3% | -13.6% | 7.2% | i | -4.9%
COc1ccc(SCC(CC(C)C)N2CCN(CCc3ccccc3)CCC2=O)cc1 (stereo not given)
→ · | · | · | 2.1% | · | ·
N#CC(C#N)=Cc1cn(-c2ncc(C(F)(F)F)cc2Cl)c2ccccc12
→ -8.7% | 12.3% | -1.7% | 12.4% | i | 7.94µM*
OC(c1ccc2ccccc2c1)c1ncc(-c2ccc(C(F)(F)F)cc2)[nH]1 (stereo not given)
→ -22.4% | · | -1.5% | · | -33.4% | 10µM*
OC(c1ccc(F)cc1)c1ncc(-c2ccc(Oc3ccccc3)cc2)[nH]1 (stereo not given)
→ -10.8% | · | -6.5% | · | i | 10µM*
Cc1cc(C(O)c2ncc(-c3ccc(Oc4ccccc4)cc3)[nH]2)ccc1F (stereo not given)
→ ? | · | -5.2% | · | -76.0% | ?
OC(c1cccc(F)c1)c1ncc(-c2ccc(C(F)(F)F)cc2)[nH]1 (stereo not given)
→ -1.9% | · | 18.8% | · | -64.9% | ?
N#CN1CCC(NS(=O)(=O)c2ccc(F)cc2)C1 (stereo not given)
→ · | · | · | -3.5% | · | ·
CCC(Sc1nnc(C)n2c1cc1occc12)C(=O)Nc1ccccc1F (stereo not given)
→ 8.9% | ? | · | -0.3% | -60.2% | 11.9%
Cc1cccc(NC(=O)C2(C)CC3c4ccccc4C2c2ccccc23)c1C (stereo not given)
→ 9.8% | -0.1% | -14.0% | 8.4% | -10.7% | 10µM*
Cc1nn(-c2ccccc2)c(-n2cccc2)c1C(=O)NCCc1ccc(Cl)cc1
→ 6.7% | -2.0% | · | 3.0% | i | ?
COc1ccc(-c2nsc3c(N4CCCCC4C)ncnc23)cc1 (stereo not given)
→ 38.9% | 13.4% | -12.1% | 5.3% | -42.6% | 0.282µM*
COc1ccc(-c2nsc3c(N4CCCCC4)ncnc23)cc1
→ -1.5% | -24.2% | -7.1% | 1.1% | -20.0% | -71.6%
Clc1cccc2c1Sc1ccccc1CC2N1CCNCC1 (stereo not given)
→ ? | ? | 11.2% | 1.2% | i | ?
Clc1ccc2c(c1)C(N1CCNCC1)Cc1ccccc1S2 (stereo not given)
→ -9.9% | ? | -16.2% | 0.6% | -4.2%[57.5 µM] | 8.91µM*

Reprinted from the part before: four compounds; new compounds follow.
Results follow in this order: HEK293 tox | miR-21 reporter | GLP1R ag | Pin1 inh | PTHR1 agonist | GLP-1R inv ag
COc1ccc(-c2nsc3c(N4CCCCC4C)ncnc23)cc1 (stereo not given)
→ 38.9% | 13.4% | -12.1% | 5.3% | -42.6% | 0.282µM*
COc1ccc(-c2nsc3c(N4CCCCC4)ncnc23)cc1
→ -1.5% | -24.2% | -7.1% | 1.1% | -20.0% | -71.6%
Clc1cccc2c1Sc1ccccc1CC2N1CCNCC1 (stereo not given)
→ ? | ? | 11.2% | 1.2% | i | ?
Clc1ccc2c(c1)C(N1CCNCC1)Cc1ccccc1S2 (stereo not given)
→ -9.9% | ? | -16.2% | 0.6% | -4.2%[57.5 µM] | 8.91µM*
CC(C)(C)c1cc(C(=O)NCCN2CCCC2)cc(C(C)(C)C)c1
→ 0.0% | -28.3% | 0.0% | ? | i | 12.6µM*
O=C(NCCN1CCCC1)c1ccc(Cl)cc1
→ 6.6% | -2.8% | -4.5% | -2.5% | i | -4.1%
Cc1ccc(C(=O)Nc2ccccc2C(=O)OCc2cc(=O)n3nc(C4CC4)sc3n2)cc1
→ 6.4% | -7.6% | · | -1.5% | i | 37.9%
COc1ccc(CCC(=O)NCC23CC4CC(CC(C4)C2)C3)cc1
→ -5.4% | -4.5% | 0.4% | 1.3% | -47.4% | 6.31µM*
CCc1ccccc1NC(=O)CN1C(=O)C2CCCN2c2ccc(S(=O)(=O)N(CC)CC)cc21 (stereo not given)
→ -0.1% | -3.3% | · | ? | 22.8% | 1.8%
COc1cccc(CNc2nc(NC(C)C)nc3ccsc23)c1OC
→ ? | · | -1.8% | · | -55.4% | 11.2µM*
COc1ccccc1CNc1nc(Nc2ccc(C)cc2C)c2sccc2n1
→ -13.0% | · | 0.1% | · | -78.1% | 10µM*
CCCN(C(=O)c1cc2c(s1)-c1ccccc1SC2)c1ccccc1F
→ -0.3% | 21.7% | · | 10.0% | -7.9% | 11.2µM*
CN(C)CCNC(=O)c1cc2c(s1)-c1ccc(Cl)cc1SC2
→ ? | ? | -9.0% | 0.8% | 1.8% | 12.6µM*
Cc1ccc(CNC(=O)c2cc3c(s2)-c2ccc(Cl)cc2SC3)cc1
→ -12.6% | 0.9% | · | -5.5% | -4.3% | 12.4%
c1ccc2sc(-c3csc4c3CCNC4)nc2c1
→ · | · | · | -3.1% | · | ·
Cc1ccccc1-c1ocnc1C(=O)Nc1ccccc1NC(=O)c1ccccn1
→ ? | 1.1% | 12.6% | -0.6% | -17.7% | 3.98µM*
COc1cccc(-c2ncc3ccccc3c2COC(=O)c2ccc(C(C)(C)C)cc2)c1
→ 13.9% | · | 18.1% | 12.8% | i | ?
COc1cccc(-c2ncc3ccccc3c2COC(=O)c2ccc(F)cc2)c1
→ 0.5% | · | 11.5% | ? | -46.1% | 11.2µM*

Look-ups from above:
`CC(NC(=O)Nc1cc(Cl)ccc1Cl)c1c(-n2cccc2)sc2c1CCCC2` (stereo not given) in GLP-1R inv ag is entered as 3.55µM*
`Cc1ccc(CNC(=O)c2cc3c(s2)-c2ccc(Cl)cc2SC3)cc1` in GLP-1R inv ag is entered as 12.4%
